Chains of the proteins cited; added tags and fusions are not shown. Residues count along the entry.
UniProt P05556, 21-798 limits assumed: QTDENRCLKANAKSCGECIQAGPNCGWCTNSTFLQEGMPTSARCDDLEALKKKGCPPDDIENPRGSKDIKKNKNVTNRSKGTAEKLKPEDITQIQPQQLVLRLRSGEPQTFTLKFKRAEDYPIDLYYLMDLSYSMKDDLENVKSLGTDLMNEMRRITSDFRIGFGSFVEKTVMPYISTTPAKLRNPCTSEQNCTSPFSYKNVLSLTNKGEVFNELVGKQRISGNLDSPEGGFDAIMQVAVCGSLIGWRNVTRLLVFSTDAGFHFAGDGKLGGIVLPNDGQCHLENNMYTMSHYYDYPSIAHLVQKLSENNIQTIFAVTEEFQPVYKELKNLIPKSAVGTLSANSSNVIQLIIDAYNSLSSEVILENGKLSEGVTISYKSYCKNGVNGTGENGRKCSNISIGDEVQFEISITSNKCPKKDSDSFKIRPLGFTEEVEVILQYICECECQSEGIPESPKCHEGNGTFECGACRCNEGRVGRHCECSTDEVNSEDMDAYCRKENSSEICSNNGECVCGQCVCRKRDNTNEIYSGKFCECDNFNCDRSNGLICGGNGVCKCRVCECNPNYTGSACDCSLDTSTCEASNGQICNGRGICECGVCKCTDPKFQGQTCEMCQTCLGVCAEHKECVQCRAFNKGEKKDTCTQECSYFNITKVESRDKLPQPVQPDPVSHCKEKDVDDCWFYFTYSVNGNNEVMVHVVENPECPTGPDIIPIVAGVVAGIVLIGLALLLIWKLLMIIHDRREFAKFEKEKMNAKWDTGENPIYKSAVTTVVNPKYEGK
UniProt P13612, 34-1032 limits assumed: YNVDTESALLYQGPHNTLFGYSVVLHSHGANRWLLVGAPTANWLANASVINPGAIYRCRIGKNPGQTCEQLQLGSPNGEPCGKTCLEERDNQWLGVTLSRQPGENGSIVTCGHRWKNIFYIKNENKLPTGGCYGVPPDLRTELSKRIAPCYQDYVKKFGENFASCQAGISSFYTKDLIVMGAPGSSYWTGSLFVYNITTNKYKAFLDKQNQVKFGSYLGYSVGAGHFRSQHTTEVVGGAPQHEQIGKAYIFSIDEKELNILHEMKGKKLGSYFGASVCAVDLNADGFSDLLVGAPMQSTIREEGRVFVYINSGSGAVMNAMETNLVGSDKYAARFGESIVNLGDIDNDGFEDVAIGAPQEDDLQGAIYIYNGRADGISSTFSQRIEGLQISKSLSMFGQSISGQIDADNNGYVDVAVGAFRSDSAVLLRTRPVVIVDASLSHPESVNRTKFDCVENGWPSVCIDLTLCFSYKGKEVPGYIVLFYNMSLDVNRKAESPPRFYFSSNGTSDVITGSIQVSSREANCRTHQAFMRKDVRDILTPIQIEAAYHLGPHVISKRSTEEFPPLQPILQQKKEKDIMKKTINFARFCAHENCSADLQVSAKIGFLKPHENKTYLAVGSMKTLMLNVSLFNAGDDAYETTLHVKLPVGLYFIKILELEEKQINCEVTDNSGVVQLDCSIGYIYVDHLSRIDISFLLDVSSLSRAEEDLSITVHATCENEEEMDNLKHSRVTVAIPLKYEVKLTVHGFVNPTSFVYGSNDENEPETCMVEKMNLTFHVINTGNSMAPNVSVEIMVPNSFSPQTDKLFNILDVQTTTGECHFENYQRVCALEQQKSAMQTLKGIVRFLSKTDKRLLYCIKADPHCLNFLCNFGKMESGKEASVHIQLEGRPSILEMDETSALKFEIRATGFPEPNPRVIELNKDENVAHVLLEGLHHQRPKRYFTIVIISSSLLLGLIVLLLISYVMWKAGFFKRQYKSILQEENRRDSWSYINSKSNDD

In patent US7345049B2, “Phenylalanine derivatives” (Ajinomoto Co., Inc., priority 2003, dated 2008):

Target: VCAM-1/α4β1 integrin binding (Homo sapiens, UniProt P05556+P13612)
Assay: Assay of antagonistic activity to VCAM-1/α4β1 integrin binding under the existence of blood serum (Jurkat cell adhesion to VCAM-1/Fc)
Conditions: read-out: IC50, antagonistic activity to VCAM-1/α4β1 integrin binding; Jurkat cells, recombinant human VCAM-1/Fc, 50% human blood serum
Description: Assay of Antagonistic Activity to VCAM-1/α4β1 Integrin Binding Under the Existence of Blood Serum
The capacity of a test substance antagonistic to the binding of cell strain of human T cells, Jurkat (ATCC TIB-152), known to express integrin α4β1, to VCAM-1 was determined.
Fifty μl/well of a solution (500 ng/ml) of recombinant human VCAM-1/Fc (R & D systems) diluted with buffer A (0.1 M NaHCO3, pH 9.6) was added to a 96-well microtiter plate (Nunc Maxisorp). After the incubation at 4° C. overnight and washing once with PBS, a buffer (buffer B) obtained by diluting Block Ace (Snow Brand Milk Products Co., Ltd.) with PBS to ½ concentration was added in an amount of 150 μl/well. After the incubation at room temperature for 2 hours, buffer B was removed and the plate was washed with PBS once.
Jurkat cells were washed with Dulbecco modified Eagle medium (SIGMA, hereinafter referred to as “DMEM”) once. Then, the cells were again suspended in a binding buffer (DMEM containing 20 mM HEPES, 0.1% BSA, 2 mM MnCl2 and 50% human blood serum (Sigma)) to become 1×10^6 cells/mL.
Sixty μl of a test substance of various concentrations obtained by the dilution with the binding buffer was added to a round-bottom, 96-well plate (IWAKI). Immediately thereafter, 60 μl of the Jurkat cells (1×10^6 cells/ml) were added thereto and shaken on a plate shaker (IKA-Labortechnik, IKA-SCHUTTLER MTS-4) at 1000 rpm for 10 seconds. In 120 μL of the cell suspension to which the test substance was added, each 100 μL thereof was transferred on the VCAM-1/Fc-coated plate and incubated in dark place at room temperature for 60 minutes. After the shaking on the plate shaker at 1000 rpm for 30 seconds, the solution was immediately removed. Then, the unbound cells were removed by washing them with PBS once. A buffer C (PBS containing 0.82% Triton X-100) was added to the plate in an amount of 70 μL/well. After the shaking on the plate shaker at 1000 rpm for 5 minutes, the bound Jurkat cells were lysed. After centrifuging the cells on a plate centrifuge (SIGMA 4-15C) at room temperature at 2500 rpm for 5 minutes, 50 μL of supernatant thereof was transferred to a 96-well microtiter plate (Nunc Maxisorp). Each 50 μL of Substrate Buffer (Promega, CytoTox 96 Non-Radioactive Cytotoxicity Assay) was added thereto, shaken on a plate shaker at 1000 rpm for 10 seconds and reacted in dark place at room temperature for 30 minutes. Then, each 50 μL of Stop Solution (Promega, CytoTox 96 Non-Radioactive Cytotoxicity Assay) was added thereto and shaken on a plate shaker at 1000 rpm for 10 seconds. Its absorbance of 490 nm was determined with a plate reader (Molecular Devices, Vmax). The absorbance thus obtained detects an activity of lactate dehydrogenase (LDH) dissolved in the supernatant of each well. Namely, the absorbance is proportional to the number of remaining Jurkat cells on the plate via the binding to VCAM-1. The test was conducted in duplicate and the binding rate of each test substance in various concentrations was determined while the absorbance of the test substance-free well was determined to be 100% and the absorbance of the Jurkat-cell-free well was determined to be 0%. The concentration for the 50% inhibition of binding, IC50, was calculated.

| IC50 [nM] | Compound |
| --- | --- |
| 10.5 | CNCc1ccc2c(c1)c(=O)n(-c1ccc(C[C@H](NC(=O)c3c(F)cccc3Cl)C(=O)O)cc1)c(=O)n2C |
| 13.9 | CN(C)Cc1ccc2c(c1)c(=O)n(-c1ccc(C[C@H](NC(=O)c3c(Cl)cccc3Cl)C(=O)O)cc1)c(=O)n2C |

Same assay, conditions: read-out: IC50, antagonistic activity to VCAM-1/α4β1 integrin binding; Jurkat cells, recombinant human VCAM-1/Fc, 50% human blood serum; tested form: TFA

| IC50 [nM] | Compound |
| --- | --- |
| 19.5 | CCN(C)CCOc1ccc2c(c1)c(=O)n(-c1ccc(C[C@H](NC(=O)c3c(Cl)cccc3Cl)C(=O)O)cc1)c(=O)n2C |
| 19.7 | CCN(CC)CCOc1ccc2c(c1)c(=O)n(-c1ccc(C[C@H](NC(=O)c3c(Cl)cccc3Cl)C(=O)O)cc1)c(=O)n2C |
| 16.9 | CCCNCCOc1ccc2c(c1)c(=O)n(-c1ccc(C[C@H](NC(=O)c3c(Cl)cccc3Cl)C(=O)O)cc1)c(=O)n2C |
| 3.6 | Cn1c(=O)n(-c2ccc(C[C@H](NC(=O)c3c(Cl)cccc3Cl)C(=O)O)cc2)c(=O)c2ccncc21 |
| 12.4 | CNCCOc1ccc2c(c1)c(=O)n(-c1ccc(C[C@H](NC(=O)c3c(Cl)cccc3Cl)C(=O)O)cc1)c(=O)n2C |
| 8.2 | Cn1c(=O)n(-c2ccc(C[C@H](NC(=O)c3c(Cl)cccc3Cl)C(=O)O)cc2)c(=O)c2cc(CNC3CCC3)ccc21 |
| 11.9 | CCNCCOc1ccc2c(c1)c(=O)n(-c1ccc(C[C@H](NC(=O)c3c(Cl)cccc3Cl)C(=O)O)cc1)c(=O)n2C |
| 14.6 | Cn1c(=O)n(-c2ccc(C[C@H](NC(=O)c3c(Cl)cccc3Cl)C(=O)O)cc2)c(=O)c2cc(OCCN3CCCC3)ccc21 |

Test system: not listed separately
Assay: Pharmacokinetic study by intravenous administration to a rat
Conditions: intravenous single dose, 1 mg/mL solution at 1 mL/kg, Wistar rat, active form
Description: Pharmacokinetic Study by Intravenous Administration to a Rat
After the compounds of the present invention wherein R11 to R141 are a hydroxyl group, which were active forms, were weighed by a scale, they were adjusted by dimethylsulfoxide to become 10 mg/mL. Polyethylene glycol 400 and distilled water were added thereto to prepare 1 mg/mL of an administration solution. 1 mg/mL of the administration solution was intravenously administered as a single dose to a Wistar rat in an amount of 1 mL/kg. 1, 5, 10, 30, 60 and 180 minutes later, the drug concentration in the blood plasma obtained by blood drawing from its cervical vein over time under anesthesia was determined with LC/MS. From the obtained results, the area under the plasma concentration time curve from zero to time infinity (AUCinf (iv)) was calculated in accordance with the trapezoidal method of pharmacokinetic analysis. The total body clearance (CLtot, [L/hr/kg]) was calculated as an index of drug disappearance in the blood plasma from a dose [mg/kg] and AUC [μg×hr/mL] in accordance with the formula: CLtot=Dose÷AUCinf(iv).

| Total body clearance CLtot [mL/min/kg] | Compound |
| --- | --- |
| 1.7 | CN(C)Cc1ccc2c(c1)c(=O)n(-c1ccc(C[C@H](NC(=O)c3c(Cl)cccc3Cl)C(=O)O)cc1)c(=O)n2C |
